Measurements taken from EP0433084A2, “Use of aromatese inhibitors for the reversal of female sexual phenotype in poultry” (MERCK & CO. INC., priority 1989, dated 1991).

How the values were obtained:
[1] = system: Line 67 White Leghorn embryos; details: in vivo
Method: The inhibitor was dissolved in saline at concentrations ranging form 1 mg/ml to 100 mg/ml and the injection volume ranged from 20 µl to 100 µl producing doses of 20 µg to 10 mg. Injections were made with a 23 G x 1 inch needle. A light source was used to orient the eggs and the injection is made under the air sac into the egg white surrounding the developing embryo. The hole was sealed with Scotch tape and the eggs were placed in a humidified, rocking incubator. At day fourteen of incubation, the embryos were removed form their shells and dissected to observe development of the gonads.

[2] = system: gonads from control males and treated females; details: in vivo

With `N#Cc1ccc(C2CCCc3cncn32)cc1` (racemic) [± 5-(p-cyanophenyl)-5,6,7,8-tetrahydroimidazo [1,5-α] pyridine hydrochloride] the hatched [1] was 75 and the “spermatogenesis in treated males” value [2] was “normal spermatogenesis”.

Where a name gives a salt, the structure may show the parent alone.
